System: mice bone marrow cell chromosomal aberration induced by cyclophosphamide
Conditions: CP 50 mg/kg alone (positive group 4); F; 500 cells
Excerpt: The test used was the modified mice bone marrow cell micronucleus test as specified in “A Notice Concerning Issuance of the Revised Items of the ‘Health Food Functional Assessment Procedures and Testing Methods’,” a document from the Ministry of Public Health of the People's Republic of China, which is hereby incorporated by reference.
The mice were randomly divided by weight into 9 groups, 5 males and 5 females respectively per group. Animals in each group were given the following treatment:
The drug was prepared as a suspension of the required concentration in distilled water, and administered orally through tube at individual dosages of 0.2 mL/10 g of body weight. The negative control group was given distilled water of the equivalent volume through tube once a day for 30 days continuously. […] 4 hours before the mice were sacrificed they are given colchicine, and the bone marrow was extracted in order to prepare the chromosome samples in the routine way.
Samples from each group were observed. One hundred (100) metaphase cells per mouse were observed, and the chromosomal structures and the numbers of aberrations were recorded. Using SPSS for Windows 8.0 (t-test), a comparative analysis was made of the experimental data from the various dosage groups and the positive groups and tested to find out if there was any significant difference between the males and females within the group.

With `O=P1(N(CCCl)CCCl)NCCCO1` (stereo not shown) [CP, cyclophosphamide] the “Cell Aberration Rate (%)” value was 44.2%.

— patent US20040009189A1, “Antimutagenic effects of ganoderma lucidum spores” (priority 2002, published 2004)
